Data on two molecules can be found in PubChem BioAssay AID720582 (The Scripps Research Institute Molecular Screening Center, 2013).

By UniProt entry, the sequences of proteins in these tests, tags left out. Residues count along the entry.
UniProt O14672, 214-748 limits assumed: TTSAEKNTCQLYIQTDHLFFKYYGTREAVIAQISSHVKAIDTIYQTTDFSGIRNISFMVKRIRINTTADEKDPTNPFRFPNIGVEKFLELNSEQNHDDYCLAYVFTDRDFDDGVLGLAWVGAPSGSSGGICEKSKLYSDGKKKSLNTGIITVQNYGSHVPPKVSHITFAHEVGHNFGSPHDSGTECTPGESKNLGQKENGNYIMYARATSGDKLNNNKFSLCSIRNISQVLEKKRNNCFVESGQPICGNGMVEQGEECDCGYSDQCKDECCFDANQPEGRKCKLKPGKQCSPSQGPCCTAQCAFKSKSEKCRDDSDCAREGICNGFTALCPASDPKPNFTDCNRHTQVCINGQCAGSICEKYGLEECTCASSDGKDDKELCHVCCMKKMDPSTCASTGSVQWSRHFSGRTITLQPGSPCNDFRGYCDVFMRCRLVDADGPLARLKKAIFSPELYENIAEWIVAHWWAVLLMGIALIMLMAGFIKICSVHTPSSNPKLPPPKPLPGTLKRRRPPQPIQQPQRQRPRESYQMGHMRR

The entries are a selection whose mix differs from that of the whole data set. Active and inactive are the calls of the source.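 Rule for the calls: active = inhibition above a per-campaign cutoff equal to the mean of compounds falling between control-based bounds plus 3 SD (cut at about 20% in these data); inactive = the rest.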

What is called inhibition is the drop in the measured response relative to a control, in per cent.

The target of the test is Disintegrin and metalloproteinase domain-containing protein 10 (Homo sapiens) (UniProt O14672). Put plainly: human ADAM10 inhibitors, primary screen, biochemical, QFRET, HTS (AID 720582).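 Note: 0% = DMSO wells while the 100% control is not disclosed.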 The following applies: recombinant ADAM10, EDANS/DABCYL FRET peptide cleavage, 3 h; at 7 µM; hits give high values.
For the molecule `CCC(=O)N(c1ccccc1)C1(COC)CCN(CCc2cccs2)CC1`, the inhibition is inactive: -4.55%. As for `CCC(=O)N(c1ccccc1)C1(COC)CCN(CCn2nnn(CC)c2=O)CC1`, the figure is inactive: -18%.
